Test system: intracranial rGBMi2-TK-GF1 tumor
Conditions: compared to saline-treated control

## Nc1nc2c(ncn2COC(CO)CO)c(=O)[nH]1 [GCV, Ganciclovir]
  elimination of therapeutic cells in vivo (BLI): eliminated

From patent US12527821B2, “Compositions and methods related to tumor cell killers and vaccines” (THE BRIGHAM AND WOMEN'S HOSPITAL, INC., priority 2018, dated 2026)
